From patent US11679103B2, “Multi-targeting agents for Alzheimer's disease therapy” (The Regents of the University of California, priority 2018, dated 2023)

By UniProt entry, the sequences of proteins in these tests, tags left out. Residues count along the entry.
UniProt P09483, 31-630: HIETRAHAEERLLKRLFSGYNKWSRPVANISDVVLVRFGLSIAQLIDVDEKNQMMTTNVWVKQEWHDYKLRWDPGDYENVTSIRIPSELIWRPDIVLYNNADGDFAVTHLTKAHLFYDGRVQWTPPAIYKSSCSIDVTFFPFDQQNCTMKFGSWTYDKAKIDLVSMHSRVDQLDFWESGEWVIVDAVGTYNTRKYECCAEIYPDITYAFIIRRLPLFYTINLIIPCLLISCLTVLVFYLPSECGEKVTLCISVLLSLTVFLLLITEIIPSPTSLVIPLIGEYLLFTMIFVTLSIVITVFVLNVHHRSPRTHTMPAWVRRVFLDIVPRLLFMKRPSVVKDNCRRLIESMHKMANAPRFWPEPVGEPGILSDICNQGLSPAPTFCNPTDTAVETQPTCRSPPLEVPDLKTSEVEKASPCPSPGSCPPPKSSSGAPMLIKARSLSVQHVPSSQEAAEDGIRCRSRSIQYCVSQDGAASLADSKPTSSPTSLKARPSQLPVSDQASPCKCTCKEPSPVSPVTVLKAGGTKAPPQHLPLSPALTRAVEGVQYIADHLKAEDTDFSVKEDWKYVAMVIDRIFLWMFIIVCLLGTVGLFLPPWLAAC
UniProt P12390, 25-500: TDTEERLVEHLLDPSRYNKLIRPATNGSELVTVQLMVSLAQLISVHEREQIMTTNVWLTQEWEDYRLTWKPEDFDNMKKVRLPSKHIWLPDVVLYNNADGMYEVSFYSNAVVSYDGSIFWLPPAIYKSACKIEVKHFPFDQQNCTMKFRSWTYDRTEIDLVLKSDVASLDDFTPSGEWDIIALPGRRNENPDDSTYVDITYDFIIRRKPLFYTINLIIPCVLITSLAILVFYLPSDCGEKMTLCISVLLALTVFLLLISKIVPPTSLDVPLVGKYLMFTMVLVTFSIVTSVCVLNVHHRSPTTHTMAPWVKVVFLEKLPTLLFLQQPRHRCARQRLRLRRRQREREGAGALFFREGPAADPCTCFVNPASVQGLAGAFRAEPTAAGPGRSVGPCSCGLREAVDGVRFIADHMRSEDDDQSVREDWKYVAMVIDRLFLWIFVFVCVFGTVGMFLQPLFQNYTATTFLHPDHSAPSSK

Target: α4β2* nAChRs (Rattus norvegicus, UniProt P09483+P12390)
Conditions: rat brain slices
Procedure: In Vitro Studies: Ex vivo rat brain slices were prepared at 10 μm thick using a Leica 1850 cryotome and used for [^3H]cytisine binding. […] The apposed phosphor screens were read and analyzed by OptiQuant acquisition and analysis program of the Cyclone Storage Phosphor System (Packard Instruments Co., Boston, Mass.). Region-of-interest of same size were drawn and analyzed on brain regions using OptiQuant software and binding of [^3H]cytisine measured in Digital Light Units/mm^2 (DLU/mm^2). Data was analyzed using following procedure: (a) the non-specific binding of [^3H]cytisine was subtracted for all samples; (b) the specific binding was normalized to 100% (no competitive ligand) and (c) the binding isotherms were fit to the Hill equation (KELL BioSoft software (v 6), Cambridge, U.K.).
Nicotinic receptor binding: The Aβ plaque-α4β2* nAChR multi-agents were tested for their affinity to the α4β2* nAChRs using rat brain slices labeled with [^3H]cytisine. […] Three brain regions analyzed included thalamus, frontal cortex and subiculum.

[1] = read-out: IC50 vs [3H]cytisine, frontal cortex, frontal cortex
[2] = read-out: IC50 vs [3H]cytisine, subiculum, subiculum
[3] = read-out: IC50 vs [3H]cytisine, thalamus, thalamus

Substance | IC50 [1] [nM] | IC50 [2] [nM] | IC50 [3] [nM]
5-(3′-Ethyl 3-methoxy-4-propyloxycinnamate)-3-(2-(S)-pyrrolidinylmethoxy)pyridine [GKS-006] | 5.33 | 2.83 | 2.8
5-(3-methoxy-4-propyloxycinnamate)-3-(2-(S)-pyrrolidinylmethoxy)pyridine [GKS-007] | 3.18 | 5.4 | 3.44

Where two headings read alike, the source gives them in different places.
